Activity calls are given as the source filed them. No cut-off for these calls is given here.
Target: DNA polymerase beta (Rattus norvegicus) (UniProt P06766)
Assay: Inhibition of DNA-polymerase beta binary complex formation by DNA binding mobility shift assay

## O=c1ccc2ccc(Oc3cc4ccc(O)cc4oc3=O)cc2o1 [EDGEWORIN]
  Activity: Active

Source: ChEMBL document CHEMBL1144753, “Inhibitors of DNA polymerase beta: activity and mechanism” (Bioorg Med Chem, 2008)
